Test results from ChEMBL document CHEMBL1129561 (J Med Chem, 1996).

What was measured:
Progesterone receptor [1] = biological target: T1, Progesterone receptor (Homo sapiens, UniProt P06401)
T1 sequence (P06401 whole entry): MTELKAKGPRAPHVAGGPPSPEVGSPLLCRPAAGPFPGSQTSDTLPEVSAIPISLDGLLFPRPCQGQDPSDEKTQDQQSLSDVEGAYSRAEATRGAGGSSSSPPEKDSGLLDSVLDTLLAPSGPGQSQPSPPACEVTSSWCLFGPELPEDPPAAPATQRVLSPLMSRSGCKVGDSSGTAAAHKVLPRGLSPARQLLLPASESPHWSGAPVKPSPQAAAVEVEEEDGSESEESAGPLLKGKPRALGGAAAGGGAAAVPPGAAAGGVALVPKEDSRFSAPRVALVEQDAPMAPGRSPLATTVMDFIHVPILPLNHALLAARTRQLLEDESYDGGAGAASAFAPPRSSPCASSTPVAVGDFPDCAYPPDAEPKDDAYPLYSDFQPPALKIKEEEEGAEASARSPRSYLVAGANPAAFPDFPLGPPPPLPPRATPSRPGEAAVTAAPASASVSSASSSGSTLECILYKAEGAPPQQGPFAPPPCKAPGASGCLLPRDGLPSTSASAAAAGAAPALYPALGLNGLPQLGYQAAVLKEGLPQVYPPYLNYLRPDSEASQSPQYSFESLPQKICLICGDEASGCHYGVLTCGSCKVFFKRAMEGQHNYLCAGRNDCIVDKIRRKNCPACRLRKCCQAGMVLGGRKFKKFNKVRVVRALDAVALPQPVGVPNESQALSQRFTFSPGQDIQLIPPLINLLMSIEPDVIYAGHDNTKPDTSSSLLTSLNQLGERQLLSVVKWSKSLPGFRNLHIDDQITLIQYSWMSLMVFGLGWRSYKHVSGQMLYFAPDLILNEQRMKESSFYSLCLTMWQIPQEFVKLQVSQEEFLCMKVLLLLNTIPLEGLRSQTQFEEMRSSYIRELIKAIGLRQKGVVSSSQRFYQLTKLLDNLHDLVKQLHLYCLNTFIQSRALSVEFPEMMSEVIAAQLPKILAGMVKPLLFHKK

Progesterone receptor [2] = biological target: T1, Progesterone receptor; remark: listed apart in the source

| Compound | Ki (Progesterone receptor [1]) [nM] | IC50 (Progesterone receptor [2]) [nM] |
| --- | --- | --- |
| C=C1C=C(C)CC(C)(C)C1(O)Cc1ccc([N+](=O)[O-])cc1 (stereo not given) | 243 |  |
| C=C1C=C(C)C(Cc2cc(OC)c(Br)cc2O)C(C)(C)C1 (stereo not given) | 109 |  |
| C=C1C=C(C)CC(C)(C)C1Cc1cc(OC)c(Br)cc1O (stereo not given) | 31 | 3570 |
| C=C1C=C(C)CC(C)(C)C1Sc1ccc([N+](=O)[O-])cc1 (stereo not given) | 119 |  |
